{"sequences": {"note": "By UniProt entry, the sequences of proteins in these tests, tags left out. Residues count along the entry.", "UniProt Q9BYF1, 18-740 limits assumed": "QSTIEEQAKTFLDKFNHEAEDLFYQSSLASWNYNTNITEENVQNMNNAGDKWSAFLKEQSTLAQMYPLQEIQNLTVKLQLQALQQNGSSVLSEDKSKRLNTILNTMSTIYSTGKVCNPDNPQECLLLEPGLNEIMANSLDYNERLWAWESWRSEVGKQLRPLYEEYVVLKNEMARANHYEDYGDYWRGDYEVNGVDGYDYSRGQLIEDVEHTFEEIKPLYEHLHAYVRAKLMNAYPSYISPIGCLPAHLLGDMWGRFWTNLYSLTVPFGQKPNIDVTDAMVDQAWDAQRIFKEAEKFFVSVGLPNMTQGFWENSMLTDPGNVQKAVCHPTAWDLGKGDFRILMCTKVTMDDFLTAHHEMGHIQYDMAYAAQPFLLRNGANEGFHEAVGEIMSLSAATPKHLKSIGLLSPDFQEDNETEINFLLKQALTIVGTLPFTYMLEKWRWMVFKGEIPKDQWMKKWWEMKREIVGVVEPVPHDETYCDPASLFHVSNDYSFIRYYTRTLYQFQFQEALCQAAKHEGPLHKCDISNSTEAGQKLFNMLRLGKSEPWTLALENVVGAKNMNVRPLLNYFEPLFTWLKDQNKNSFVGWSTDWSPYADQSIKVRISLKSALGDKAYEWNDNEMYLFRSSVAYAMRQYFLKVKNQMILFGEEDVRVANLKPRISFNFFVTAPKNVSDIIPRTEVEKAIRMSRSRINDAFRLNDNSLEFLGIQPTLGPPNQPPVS"}, "source": "paper PMC9814530", "about": "“Rapid de novo discovery of peptidomimetic affinity reagents for human angiotensin converting enzyme 2” (Communications Chemistry, 2022)", "biological_target": "ACE2 (Homo sapiens, UniProt Q9BYF1)", "experiment": "Bio-layer interferometry (BLI) binding of immobilized biotinylated peptides to ACE2", "conditions": "biotinylated peptide on streptavidin tips, ACE2 1000-62.5 nM, 30 °C, global 1:1 fit, read-out: KD (dissociation constant) to ACE2", "experimental": "Peptide binding validation was carried out using the ForteBio Octet RED96 system. The chamber temperature was kept constant at 30 °C with a plate agitation speed at 1000 rpm. Briefly, streptavidin (SA)-coated biosensor tips were dipped into 200 μL of 1.0–2.0 μM biotinylated peptide solution (in a kinetic buffer (K.B.): 1 × PBS with 0.1% BSA and 0.02% Tween-20) for peptides immobilization. Once loaded with peptides, the tips were then moved into solutions containing various concentrations (1000, 500, 250, 125, and 62.5 nM) of recombinant ACE2 protein (purchased from Sino Biological, Catalog number 10108-H08H) in the K.B. to obtain the association curve. After the 180 s association step, the tips were moved back into the K.B. to obtain the dissociation curve. Buffer-only and protein-only conditions (concentration at 1000 nM) were used as references for background subtraction. The association and dissociation curves were fitted with the ForteBio Biosystems Data Analysis Software under 5 experimental conditions (n = 5, global fitting algorithm, binding model 1:1) to calculate the apparent dissociation constant (KD). […]\naffinity was reported using the kinetic fitting results ( KD is calculated by divide the […]\nscrambled sequences, Scrm N1.1 and Scrm N1.2, measured by BLI. […]\nN6, and N8 to an unrelated protein, 12ca5, measured by BLI at concentration", "data": [{"smiles": "CS(=O)(=O)CC[C@H](NC(=O)[C@H](Cc1ccc(F)c(F)c1)NC(=O)[C@H](CCCN)NC(=O)[C@@H](N)CC1CC1)C(=O)N1C[C@H](O)C[C@H]1C(=O)N[C@@H](Cc1cscn1)C(=O)N1CCC[C@@H]1C(=O)N[C@@H](CCC(N)=O)C(=O)N[C@@H](Cc1ccc(F)c(F)c1)C(=O)N[C@@H](CC1CCCCC1)C(=O)N[C@@H](CC1CCCCC1)C(=O)NCCC(=O)N[C@@H](CCCCN)C(N)=O", "note": "[ABP N6]", "values": [{"measurement": "Kd", "value": 33, "unit": "nM"}]}, {"smiles": "COc1ccc(C[C@H](NC(=O)[C@H](Cc2ccc(F)c(F)c2)NC(=O)[C@@H]2C[C@@H](O)CN2C(=O)[C@H]2CCCN2C(=O)[C@H]2CCCN2C(=O)CNC(=O)[C@H](CC2CC2)NC(=O)[C@H](Cc2cscn2)NC(=O)[C@@H](N)CC2CC2)C(=O)N[C@@H](Cc2cscn2)C(=O)NCCC(=O)NCc2ccc(C(=O)N[C@@H](CCCCN)C(N)=O)cc2)cc1OC", "note": "[ABP N4]", "values": [{"measurement": "Kd", "value": 123, "unit": "nM"}]}]}
